Results taken from patent publication US9862679B2, “Potent and selective inhibitors of monoamine transporters; method of making; and use thereof” (priority 2013, dated 2018).
Read-outs that look alike come from different tables or passages of the source.

By UniProt entry, the sequences of proteins in these tests, tags left out. Residues count along the entry.
UniProt P31652, whole entry: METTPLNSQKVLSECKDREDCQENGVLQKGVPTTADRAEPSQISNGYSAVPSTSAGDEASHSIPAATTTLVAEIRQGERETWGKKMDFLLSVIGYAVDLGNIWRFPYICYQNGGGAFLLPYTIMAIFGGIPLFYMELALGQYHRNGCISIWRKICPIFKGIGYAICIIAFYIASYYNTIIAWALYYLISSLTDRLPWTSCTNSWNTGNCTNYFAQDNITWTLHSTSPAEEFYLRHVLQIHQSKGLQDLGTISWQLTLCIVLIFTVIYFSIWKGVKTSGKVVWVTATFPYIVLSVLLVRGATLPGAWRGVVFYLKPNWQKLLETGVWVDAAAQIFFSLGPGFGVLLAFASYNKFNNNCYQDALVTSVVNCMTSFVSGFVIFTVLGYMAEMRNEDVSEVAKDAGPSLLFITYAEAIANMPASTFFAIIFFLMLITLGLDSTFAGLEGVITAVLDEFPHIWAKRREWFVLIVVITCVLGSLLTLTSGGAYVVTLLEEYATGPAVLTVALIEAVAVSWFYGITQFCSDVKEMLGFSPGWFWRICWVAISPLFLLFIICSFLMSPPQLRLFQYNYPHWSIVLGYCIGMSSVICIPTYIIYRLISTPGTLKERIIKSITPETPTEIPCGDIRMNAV
UniProt P23977, whole entry: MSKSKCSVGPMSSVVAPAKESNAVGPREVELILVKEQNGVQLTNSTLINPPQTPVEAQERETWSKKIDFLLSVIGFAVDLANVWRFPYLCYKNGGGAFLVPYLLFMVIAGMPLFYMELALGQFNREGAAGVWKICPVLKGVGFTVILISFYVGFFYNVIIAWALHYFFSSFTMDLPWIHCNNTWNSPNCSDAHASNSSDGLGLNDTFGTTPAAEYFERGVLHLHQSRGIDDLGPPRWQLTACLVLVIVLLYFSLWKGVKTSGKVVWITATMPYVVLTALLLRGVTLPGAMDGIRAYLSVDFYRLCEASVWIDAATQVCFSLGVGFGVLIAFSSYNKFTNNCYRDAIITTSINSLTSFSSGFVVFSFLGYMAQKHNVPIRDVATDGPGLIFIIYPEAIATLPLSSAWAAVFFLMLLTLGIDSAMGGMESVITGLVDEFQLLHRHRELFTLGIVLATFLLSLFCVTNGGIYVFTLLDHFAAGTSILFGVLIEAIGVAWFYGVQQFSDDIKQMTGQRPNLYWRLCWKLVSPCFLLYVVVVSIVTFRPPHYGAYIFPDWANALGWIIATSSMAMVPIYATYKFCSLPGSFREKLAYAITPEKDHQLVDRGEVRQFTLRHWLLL
UniProt Q63380, 1-617: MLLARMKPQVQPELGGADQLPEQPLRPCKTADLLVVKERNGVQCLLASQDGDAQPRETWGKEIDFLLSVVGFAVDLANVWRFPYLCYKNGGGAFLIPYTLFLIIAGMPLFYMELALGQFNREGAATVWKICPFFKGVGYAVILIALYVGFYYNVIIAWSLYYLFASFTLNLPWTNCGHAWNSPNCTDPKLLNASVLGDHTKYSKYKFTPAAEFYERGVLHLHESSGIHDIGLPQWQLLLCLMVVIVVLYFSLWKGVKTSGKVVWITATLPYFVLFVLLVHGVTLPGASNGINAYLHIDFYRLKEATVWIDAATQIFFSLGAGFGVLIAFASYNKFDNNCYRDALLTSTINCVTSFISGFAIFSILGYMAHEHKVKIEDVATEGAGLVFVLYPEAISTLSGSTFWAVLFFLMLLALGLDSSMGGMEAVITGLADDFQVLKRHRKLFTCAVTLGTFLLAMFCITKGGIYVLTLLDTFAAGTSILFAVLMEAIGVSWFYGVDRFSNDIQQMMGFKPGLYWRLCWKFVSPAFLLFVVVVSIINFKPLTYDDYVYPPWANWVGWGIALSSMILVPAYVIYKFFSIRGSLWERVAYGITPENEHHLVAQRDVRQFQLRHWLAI

Columns and labels:
[1] = biological target: T1, serotonin transporter (SERT) (Rattus norvegicus (Rat), UniProt P31652); conditions: rat brain membranes
[2] = biological target: dopamine transporter (DAT) (Rattus norvegicus (Rat), UniProt P23977); experiment: Dopamine Transporter Binding Assay ([3H]WIN 35428, rat striatal membranes); conditions: for Ki: read-out: Ki (nM) ± S.E.M. DAT
[3] = Plasma pharmacokinetics in mice, 10 mg/kg i.v. and p.o.; conditions: male, CD1, mouse, in vivo
[4] = biological target: norepinephrine transporter (NET) (Rattus norvegicus, UniProt Q63380); conditions: rat brain membranes
[5] = biological target: T1, serotonin transporter (SERT); experiment: biochemical
[6] = read-out: SERT Ki ± SEM, Table 5 piperazinyl derivatives
[7] = ratio of Ki values, rat brain membranes
[8] = read-out: Ki (nM) ± S.E.M. SERT, Table 1 thioacetamides and sulfinylacetamides

Question: Which Ki [1, 6] does the source give for `[O-][S+](CCN1CCN(CCCc2ccccc2)CC1)C(c1ccc(F)cc1)c1ccc(F)cc1` (stereo not drawn) [Compound 8b, 1-(2-((Bis(4-fluorophenyl)methyl)sulfinyl)ethyl)-4-(3-phenylpropyl)piperazine] here?
Answer: 678 nM

Question: With `O=C(CSC(c1ccc(Br)cc1)c1ccc(Br)cc1)NCCCc1ccccc1` [Compound 2x, 2-((Bis(4-bromophenyl)methyl)thio)-N-(3-phenylpropyl)acetamide] as the molecule, how does the NET/DAT selectivity ratio [2, 7] read?
Answer: ≥ 149

Question: And the SERT/DAT selectivity ratio [2, 7]?
Answer: ≥ 249

Question: Which results are given for `O=C(CSC(c1ccc(Br)cc1)c1ccc(Br)cc1)NCCCCc1ccccc1` [Compound 2z, 2-((Bis(4-bromophenyl)methyl)thio)-N-(4-phenylbutyl)acetamide]?
Answer: SERT/DAT selectivity ratio [2, 7]: ≥ 241; Ki [2]: 414 ± 59.5 nM

Question: For `CCCNC(=O)CSC(c1ccc(Br)cc1)c1ccc(Br)cc1` [Compound 2n, 2-((Bis(4-bromophenyl)methyl)thio)-N-propylacetamide], which Ki [1, 8] is on record?
Answer: 8970 nM

Question: What about the Ki [2] of the same molecule?
Answer: 592 ± 42.6 nM

Question: Which NET/DAT selectivity ratio [2, 7] does the source give for `CCCCNCCSC(c1ccccc1)c1ccccc1` [Compound 4e, N-(2-(benzhydrylthio)ethyl)butan-1-amine] here?
Answer: 36

Question: What about the SERT/DAT selectivity ratio [2, 7] of the same molecule?
Answer: 18

Question: What does the source list for `Fc1ccc(C(SCCNCCCc2ccccc2)c2ccc(F)cc2)cc1` [Compound 4g, N-(2-((bis(4-fluorophenyl)methyl)thio)ethyl)-3-phenylpropan-1-amine]?
Answer: half-life [3]: ~60 min; half-life ([3]; iv): 59.8 min

Question: With `O=C(CSC(c1ccc(F)cc1)c1ccc(F)cc1)NCCCc1ccccc1` [Compound 2v, 2-((Bis(4-fluorophenyl)methyl)thio)-N-(3-phenylpropyl)acetamide] as the molecule, how does the Ki [2] read?
Answer: 452 ± 65.8 nM

Question: For `NCC[S+]([O-])C(c1ccccc1)c1ccccc1` (stereo not drawn) [Compound 5a, 2-(Benzhydrylsulfinyl)ethan-1-amine], which Ki [2] is on record?
Answer: 1110 nM

Question: With `CCCCNC(=O)CSC(c1ccc(F)cc1)c1ccc(F)cc1` [Compound 2s, 2-((Bis(4-fluorophenyl)methyl)thio)-N-butylacetamide] as the molecule, how does the Ki [1, 8] read?
Answer: 25800 nM

Question: For `NC(=O)C[S+]([O-])C(c1ccccc1)c1ccccc1` (racemic) [(±)-modafinil, 2-[(diphenylmethyl)sulfinyl]acetamide, reference compound], which Ki ([4]; read-out: Ki (nM) ± S.E.M. NET, Table 1 thioacetamides and sulfinylacetamides) is on record?
Answer: > 100000 nM

Question: With `O=C(CSC(c1ccc(Cl)cc1)c1ccc(Cl)cc1)NCCCc1ccccc1` [Compound 2w, 2-((bis(4-chlorophenyl)methyl)thio)-N-(3-phenylpropyl)acetamide] as the molecule, how does the Ki [5] read?
Answer: > 100000 nM

Question: Which Ki [1, 8] does the source give for `O=C(CSC(c1ccccc1)c1ccccc1)NCCCCc1ccccc1` [Compound 2y, 2-(Benzhydrylthio)-N-(4-phenylbutyl)acetamide] here?
Answer: > 100000 nM

Question: Which results are given for `CCCCNCC[S+]([O-])C(c1ccccc1)c1ccccc1` (stereo not drawn) [Compound 5b, N-(2-(benzhydrylsulfinyl)ethyl)butan-1-amine]?
Answer: NET/DAT selectivity ratio [2, 7]: 89; SERT/DAT selectivity ratio [2, 7]: 41

Question: With `NC(=O)CSC(c1cccc(Cl)c1)c1cccc(Cl)c1` [Compound 2e, 2-((Bis(3-chlorophenyl)methyl)thio)acetamide] as the molecule, how does the NET/DAT selectivity ratio [2, 7] read?
Answer: ≥ 123

Question: For `CNC(=O)CSC(c1ccc(Cl)cc1)c1ccc(Cl)cc1` [Compound 2h, 2-((Bis(4-chlorophenyl)methyl)thio)-N-methylacetamide], which Ki [2] is on record?
Answer: 4240 nM

Question: What does the source list for `O=C(CSC(c1ccccc1)c1ccccc1)N1CCN(CCCc2ccccc2)CC1` [Compound 11a, 2-(Benzhydrylthio)-1-(4-(3-phenylpropyl)piperazin-1-yl)ethan-1-one]?
Answer: Ki [1, 6]: 9320 ± 932 nM; Ki ([4]; read-out: NET Ki ± SEM, Table 5 piperazinyl derivatives): 22600 ± 3010 nM

Question: For `CCCNC(=O)CSC(c1ccc(Cl)cc1)c1ccc(Cl)cc1` [Compound 2m, 2-((Bis(4-chlorophenyl)methyl)thio)-N-propylacetamide], which Ki [2] is on record?
Answer: 1250 nM

Question: With `OC(Cc1ccccc1)CN1CCN(CCSC(c2ccccc2)c2ccccc2)CC1` (racemic) [Compound 9g, 1-(4-(2-(Benzhydrylthio)ethyl)piperazin-1-yl)-3-phenylpropan-2-ol] as the molecule, how does the Ki [1, 6] read?
Answer: 1630 ± 169 nM

Question: Which Ki [5] does the source give for `O=C(CSC(c1ccccc1)c1ccccc1)NCCCc1ccccc1` [Compound 2u, 2-(Benzhydrylthio)-N-(3-phenylpropyl)acetamide] here?
Answer: > 100000 nM

Question: With `O=C(C[S+]([O-])C(c1ccc(Br)cc1)c1ccc(Br)cc1)NCCCc1ccccc1` (stereo not drawn) [Compound 3g, 2-(Bis(4-bromophenyl)methylsulfinyl)-N-(3-phenylpropyl)acetamide] as the molecule, how does the “DAT:SERT ratio” value [2, 7] read?
Answer: 1.4
